Source: ChEMBL document CHEMBL6083251, “"Pseudosubstrate Envelope"/Free Energy Perturbation-Guided Design and Mechanistic Investigations of Benzothiazole HIV Capsid Modulators with High Ligand Efficiency” (J Med Chem, 2024)

Tests used:
[1] = target: Structural capsid protein (Human immunodeficiency virus 1) (UniProt Q76129); assay: Binding affinity to monomeric HIV-1 NL4.3 capsid protein assessed as dissociation rate (Koff) by SPR assay; conditions: filed as modulator
[2] = target: Structural capsid protein (Human immunodeficiency virus 1) (UniProt Q76129); assay: Binding affinity to monomeric HIV-1 NL4.3 capsid protein assessed as residence time by SPR assay; conditions: filed as modulator
[3] = target: Structural capsid protein (Human immunodeficiency virus 1) (UniProt Q76129); assay: Binding affinity to hexameric HIV-1 NL4.3 capsid protein assessed as dissociation rate (Koff) by SPR assay; conditions: filed as modulator
[4] = target: Structural capsid protein (Human immunodeficiency virus 1) (UniProt Q76129); assay: Binding affinity to hexameric HIV-1 NL4.3 capsid protein assessed as residence time by SPR assay; conditions: filed as modulator
[5] = target: Structural capsid protein (Human immunodeficiency virus 1) (UniProt Q76129); assay: Selectivity ratio of Kd for binding affinity to monomeric HIV-1 NL4.3 capsid protein to Kd for hexameric HIV-1 NL4.3 capsid protein

| SMILES | K [1] | TIME [2] [h] | K [3] | TIME [4] [h] | Ratio [5] |
| --- | --- | --- | --- | --- | --- |
| CN(C(=O)[C@H](Cc1cc(F)cc(F)c1)NC(=O)Cc1c[nH]c2cc(F)c(F)cc12)c1ccc2scnc2c1 | 3.32 10^-2/s | 0.00833 | 2.9 10^-3/s | 0.0958 | 0.87 |
| CN(C(=O)[C@H](Cc1cc(F)cc(F)c1)NC(=O)Cc1c[nH]c2ccc(O)cc12)c1ccc2scnc2c1 | 4.79 10^-2/s | 0.00583 | 4.49 10^-3/s | 0.0618 | 3.3 |
| CN(C(=O)[C@H](Cc1cc(F)cc(F)c1)NC(=O)Cc1c[nH]c2ccc(N)cc12)c1ccc2scnc2c1 | 2.51 10^-2/s | 0.011 | 4.28 10^-3/s | 0.0648 | 2.07 |
| CN(C(=O)[C@H](Cc1cc(F)cc(F)c1)NC(=O)Cc1c[nH]c2ccc([N+](=O)[O-])cc12)c1ccc2scnc2c1 | 3.91 10^-2/s | 0.00717 | 3.98 10^-3/s | 0.0698 | 1.74 |
